# System: Hepatocyte spheroids
# Assay: Cell viability is assessed by cellular ATP assay using CellTiter-Glo Luminescent kit. Viability is expressed as average RLU from biological replicates and normalized to negative control.Toxicity is defined as those with normalized ATP significantly less than 80 percent of the negative control.
# Type: functional, Homo sapiens
# Set-up: unit not given here
SMILES,Proliferation (Concentration range 5nM-5uM),Proliferation (Concentration range 10nM-10uM),other results
O=C(c1ccc(C(=O)N2CCC(N3CCCC3)CC2)c(Nc2ccccc2)c1)N1CCC(N2CCCC2)CC1,0.005005,–,–
CCOC(=O)CCNc1cc(N2CCc3ccccc3CC2)nc(-c2ccccn2)n1,–,0.01732,–
CCCc1cc(C)[nH]c(=O)c1CNC(=O)c1cc(-c2ccc(N3CCN(C(C)C)CC3)nc2)cc2c1cnn2C(C)C,0.0247,–,–
CC(C)NC(=O)N1CC[C@H](NC2=Nc3cc(F)ccc3N(CC(F)F)c3ccc(Cl)cc32)C1,–,–,Proliferation: 0.3239
CCCS(=O)(=O)c1nc(NC2CC2)cc(-c2ccc3c(ccn3C3CC(C)(C)NC(C)(C)C3)c2)n1,–,0.068,–

# Source: ChEMBL document CHEMBL5724564, “Patient-derived NASH model to assess the effects of chemical probes on hepatocyte regenerations” (2024)
